Source: patent publication US9102670B2, “Pyrido-, pyrazo- and pyrimido-pyrimidine derivatives as mTOR inhibitors” (KuDOS Pharmaceuticals Limited, priority 2006, dated 2015)

Test system: phosphorylation of Serine 473 in Akt
Assay: In Vitro Phospho-Ser473 Akt Assay in MDA-MB-468 cells
Assay type: cell-based
Settings: Homo sapiens, MDA-MB-468, read-out: IC50 values against mTOR, phospho-Ser473 Akt assay, MDA-MB-468 cells

C[C@H]1COCCN1c1nc(N2CCOC[C@@H]2C)c2ccc(-c3ccc(CNCCO)cc3)nc2n1 [Example 4f]
IC50: < 100 nM
